A word on the IC50: it is the concentration at which inhibition is half-maximal.

Sequences of proteins named here, by UniProt entry; tags and fusion partners are left off. A change or cut given only in a name is not applied to a line headed by its entry.
UniProt Q9H7B4: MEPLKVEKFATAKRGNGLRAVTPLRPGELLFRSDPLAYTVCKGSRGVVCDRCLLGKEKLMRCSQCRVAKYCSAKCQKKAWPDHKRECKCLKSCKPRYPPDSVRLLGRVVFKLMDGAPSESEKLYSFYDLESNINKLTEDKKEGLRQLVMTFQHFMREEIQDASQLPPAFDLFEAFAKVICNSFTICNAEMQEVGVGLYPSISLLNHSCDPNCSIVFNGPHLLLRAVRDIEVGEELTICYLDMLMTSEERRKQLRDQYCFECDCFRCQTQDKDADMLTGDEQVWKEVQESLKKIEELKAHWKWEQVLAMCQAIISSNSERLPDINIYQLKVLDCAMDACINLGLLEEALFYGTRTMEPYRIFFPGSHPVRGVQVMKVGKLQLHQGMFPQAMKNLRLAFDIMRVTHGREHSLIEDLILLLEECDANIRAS
UniProt Q9NRG4: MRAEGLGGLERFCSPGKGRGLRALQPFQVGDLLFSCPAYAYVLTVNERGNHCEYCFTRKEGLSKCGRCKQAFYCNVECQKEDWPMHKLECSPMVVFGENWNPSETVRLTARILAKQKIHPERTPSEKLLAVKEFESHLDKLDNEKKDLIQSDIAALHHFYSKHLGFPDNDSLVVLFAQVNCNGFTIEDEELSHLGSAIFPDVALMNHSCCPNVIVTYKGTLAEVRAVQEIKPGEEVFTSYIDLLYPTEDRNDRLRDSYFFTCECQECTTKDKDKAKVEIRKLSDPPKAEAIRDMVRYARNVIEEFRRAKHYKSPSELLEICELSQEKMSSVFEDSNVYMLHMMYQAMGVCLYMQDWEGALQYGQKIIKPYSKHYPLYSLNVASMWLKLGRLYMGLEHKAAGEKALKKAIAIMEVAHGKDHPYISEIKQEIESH

The first assay addresses T1, SMYD3 (Homo sapiens (Human), UniProt Q9H7B4). Description: SMYD3 cell assay (Trimethyl-MEKK2 In-Cell Western in 293T/17 cells transfected with MEKK2-flag and SMYD3). It counts as cell-based. Conditions: Table 3A; average of n = 1 to n = 50. The text has this:
Trimethyl-MEKK2-in-Cell Western Assay
MEM/Glutamax medium, Optimem Reduced Serum medium, penicillin-streptomycin, 0.05% trypsin and 1×D-PBS were purchased from Life Technologies, Grand Island, N.Y., USA. PBS-10× was purchased from Ambion, Life Technologies, Grand Island, N.Y., USA. PBS with Tween 20 (PBST (10×)) was purchased from KPL, Gaithersburg, Md., USA. Tet System FBS-approved FBS US Source was purchased from Clontech, Mountain View, Calif., USA. Odyssey blocking buffer, 800CW goat anti-rabbit IgG (H+L) antibody, 680CW Goat anti-mouse IgG (H+L) and Licor Odyssey infrared scanner were purchased from Licor Biosciences, Lincoln, Nebr., USA. […]
Plasmids were prepared for delivery to cells by first mixing 1350 μL Opti-MEM with Fugene (81 μL) in a sterile Eppendorf and incubated for five minutes at room temperature (RT). […] Room temperature MEM+10% Tet system FBS was added and cells were mixed gently, and counted using the Vi-cell. […]
First, the ratio for each well was determined by:
Each plate included fourteen control wells of DMSO only treatment (Minimum Inhibition) as well as fourteen control wells for maximum inhibition (Background). The average of the ratio values for each control type was calculated and used to determine the percent inhibition for each test well in the plate. […] Percent inhibition was calculated (below). […]
For the compound `C[C@H]1C[C@@H](NC(=O)c2ccc3c(c2)CC(=O)N3)CCN1C(=O)[C@H]1CC[C@H](N)CC1` [compound 642, N-((2S,4S)-1-((1r,4S)-4-aminocyclohexane-1-carbonyl)-2-methylpiperidin-4-yl)-2-oxoindoline-5-carboxamide], the IC50 was at least 10 µM.

For another assay, the target named is T1, SMYD3. Description: SMYD3 biochemical assay (SMYD3 enzyme assay on MEKK2 protein substrate, 3H-SAM scintillation proximity assay). Conditions: read-out: SMYD3 Biochem IC50. The text has this: S-adenosylmethionine (SAM), S-adenosylhomocysteine (SAH), Tris, Tween20, dimethylsulfoxide (DMSO), bovine skin gelatin (BSG), and Tris(2-carboxyethyl)phosphine hydrochloride solution (TCEP) were purchased from Sigma-Aldrich at the highest level of purity possible. ^3H-SAM was purchase from American Radiolabeled Chemicals with a specific activity of 80 Ci/mmol. 384-well opaque white OptiPlates and SPA beads (Perkin Elmer, catalog # RPNQ0013) were purchased from PerkinElmer.
N-terminally GST-tagged MEKK2 (MAP3K2) protein corresponding to reference sequence AAF63496.3 was purchased from Life Technologies (catalog # PV4010). This protein was expressed in High Five insect cells and purified to >85% purity. Protein identity was confirmed by MS/MS analysis after proteolytic digestion. The protein sequence used was:
Full-length human SMYD3 isoform 1 (BAB86333) was inserted into a modified pET21b plasmid containing a His6 tag and TEV and SUMO cleavage sites. […]
The assays were all performed in a buffer consisting of 25 mM Tris-Cl pH 8.0, 1 mM TCEP, 0.005% BSG, and 0.005% Tween 20, prepared on the day of use. […] Radiolabeled MEKK2 was detected using a scintillation proximity assay (SPA). […]
(In general: In a scintillation proximity assay essentially only radioactivity close to the scintillant gives light.)
`NCCC(=O)N[C@H]1CC[C@H](NC(=O)c2cccc3c2NC(=O)C3)CC1` [compound 505, N-((1r,4r)-4-(3-aminopropanamido)cyclohexyl)-2-oxoindoline-7-carboxamide]: the IC50 came to 16.1 µM.

The target of another assay is SMYD2 (Homo sapiens (Human), UniProt Q9NRG4). Description: SMYD2 biochemical assay (SMYD2 enzyme assay on peptide substrate, 3H-SAM Flashplate). The conditions noted are these: SMYD2 Biochem IC50 (μM), IC50 values are an average of n = 1 to n = 50.
Take `O=C(NC1CN(C[C@H]2C[C@H](OCc3ccccc3)C2)C1)c1cn(C2CC2)nn1` [compound 969, rac-N-(1-(((1r,3r)-3-(benzyloxy)cyclobutyl)methyl)azetidin-3-yl)-1-cyclopropyl-1H-1,2,3-triazole-4-carboxamide]: inhibition was half-maximal at 0.98 µM (IC50).

The same assay, now with this note: read-out: SMYD2 Biochem IC50; IC50 values are an average of n = 1 to n = 50.
Consider `O=C(NC1CN(C2CC2)C1)c1cn(C2CC2)nn1` [compound 664, 1-cyclopropyl-N-(1-cyclopropylazetidin-3-yl)-1H-1,2,3-triazole-4-carboxamide], for which the concentration for half-maximal inhibition (IC50) came out at 1.48 µM.
On the same count and under the same terms, then `CC(c1ccc(OCc2ccc(Cl)cc2)cc1)N1CC(NC(=O)c2cn(C3CC3)nn2)C1` (stereo not drawn) [compound 848, N-[1-(1-{4-[(4-chlorophenyl)methoxy]phenyl}ethyl)azetidin-3-yl]-1-cyclopropyl-1H-1,2,3-triazole-4-carboxamide], with 0.0693 µM; and `CNCc1cccc(CN2CC(NC(=O)c3cn(C4CC4)nn3)C2)c1OC` [compound 812, 1-cyclopropyl-N-[1-({2-methoxy-3-[(methylamino)methyl]phenyl}methyl)azetidin-3-yl]-1H-1,2,3-triazole-4-carboxamide], with 41.2 µM; and `CC(c1ccc(OCC2CCCNC2)cc1)N1CC(NC(=O)c2cn(C3CC3)nn2)C1` (stereo not drawn) [compound 850, 1-cyclopropyl-N-(1-{1-[4-(piperidin-3-ylmethoxy)phenyl]ethyl}azetidin-3-yl)-1H-1,2,3-triazole-4-carboxamide], with 3.33 µM.
With `COc1ccccc1C(C)N1CC(NC(=O)c2cn(C3CC3)nn2)C1` (stereo not drawn) [compound 682, 1-cyclopropyl-N-{1-[1-(2-methoxyphenyl)ethyl]azetidin-3-yl}-1H-1,2,3-triazole-4-carboxamide], the half-inhibitory concentration (IC50) is 0.665 µM.
Same read-out and setting: then `COc1cccc2c1CCCC2N1CC(NC(=O)c2cn(C3CC3)nn2)C1` (stereo not drawn) [compound 738, 1-cyclopropyl-N-[1-(5-methoxy-1,2,3,4-tetrahydronaphthalen-1-yl)azetidin-3-yl]-1H-1,2,3-triazole-4-carboxamide], with 5.83 µM.
As for `COc1ccc2c(c1OC)CCC2N1CC(NC(=O)c2cn(C3CC3)nn2)C1` (stereo not drawn) [compound 744, 1-cyclopropyl-N-[1-(4,5-dimethoxy-2,3-dihydro-1H-inden-1-yl)azetidin-3-yl]-1H-1,2,3-triazole-4-carboxamide], the IC50 worked out at 23.7 µM.
Same read-out and setting: under `CC(c1cc(Cl)ccc1Cl)N1CC(NC(=O)c2cn(C3CC3)nn2)C1` (stereo not drawn) [compound 696, 1-cyclopropyl-N-{1-[1-(2,5-dichlorophenyl)ethyl]azetidin-3-yl}-1H-1,2,3-triazole-4-carboxamide] stands 0.187 µM.
`CNCc1cccc(C(C)N2CC(NC(=O)c3cn(C4CC4)nn3)C2)c1` (stereo not drawn) [compound 771, 1-cyclopropyl-N-[1-(1-{3-[(methylamino)methyl]phenyl}ethyl)azetidin-3-yl]-1H-1,2,3-triazole-4-carboxamide]: the 50% inhibitory concentration (IC50) stood at 4.98 µM.
With `CC(c1ccc(OCc2ccc(Cl)cc2)cc1)N1CC(NC(=O)c2cn(C3CC3)nn2)C1` (stereo not drawn) [compound 996, N-(1-(1-(4-((4-chlorobenzyl)oxy)phenyl)ethyl)azetidin-3-yl)-1-cyclopropyl-1H-1,2,3-triazole-4-carboxamide], the IC50 turned out to be 0.069 µM.
On to `CC(c1ccccn1)N1CC(NC(=O)c2cn(C3CC3)nn2)C1` (stereo not drawn) [compound 685, 1-cyclopropyl-N-{1-[1-(pyridin-2-yl)ethyl]azetidin-3-yl}-1H-1,2,3-triazole-4-carboxamide], for which the IC50 turned out to be 3.56 µM.
As to `CC(C)N1CC(NC(=O)c2ncc(C3CC3)[nH]2)C1` [compound 913, 5-cyclopropyl-N-[1-(propan-2-yl)azetidin-3-yl]-1H-imidazole-2-carboxamide], the IC50 turned out to be 1.7 µM.

These data come from patent US10266526B2, “Substituted 1,2,3-triazoles as SMYD inhibitors for treating cancer” (EPIZYME, INC., priority 2014, dated 2019).
